Data on one substance can be found in publication PMC6881340.

This assay has as its target actin filament (UniProt P68135). In words: darkfield tracking of a gold nanoparticle on a single myosin head; as a2 but data taken at 19 ± 0.5 °C, 40 µs time resolution; trajectories analysed by nonparametric Bayesian inference (hidden Markov model, 1000 inferences) for transient (weak) binding states.

In turn, “lever-arm-less S1 of human skeletal muscle myosin IIa (light chain null construct), SNAP-FLAG-His, oligonucleotide-labeled (from UniProt Q9UKX2 1-849) (domain or fragment)” yielded a dwell time of the transient binding state at 9.9 nm of 238 μs, a dwell time of the transient binding state at 22.8 nm of 513 μs, a dwell time of the transient binding state at -1.1 nm of 160 μs and a dwell time of the transient binding state at -12.9 nm of 237 μs. Further, the dwell time of the transient state at 10.0 nm, one typical inference worked out at 278 μs; the dwell time of the transient state at 21.9 nm, one typical inference was determined as 486 μs; the dwell time of the transient state at -1.3 nm, one typical inference came out at 160 μs; the dwell time of the transient state at -12.5 nm, one typical inference stood at 299 μs. The substance also had a fold prolongation of the dwell time, strong binding against weak binding of 250 fold.
